Molecular target: Cholinesterase (Homo sapiens, UniProt P06276)

By UniProt entry, the sequences of proteins in these tests, tags left out.
UniProt P06276, whole entry: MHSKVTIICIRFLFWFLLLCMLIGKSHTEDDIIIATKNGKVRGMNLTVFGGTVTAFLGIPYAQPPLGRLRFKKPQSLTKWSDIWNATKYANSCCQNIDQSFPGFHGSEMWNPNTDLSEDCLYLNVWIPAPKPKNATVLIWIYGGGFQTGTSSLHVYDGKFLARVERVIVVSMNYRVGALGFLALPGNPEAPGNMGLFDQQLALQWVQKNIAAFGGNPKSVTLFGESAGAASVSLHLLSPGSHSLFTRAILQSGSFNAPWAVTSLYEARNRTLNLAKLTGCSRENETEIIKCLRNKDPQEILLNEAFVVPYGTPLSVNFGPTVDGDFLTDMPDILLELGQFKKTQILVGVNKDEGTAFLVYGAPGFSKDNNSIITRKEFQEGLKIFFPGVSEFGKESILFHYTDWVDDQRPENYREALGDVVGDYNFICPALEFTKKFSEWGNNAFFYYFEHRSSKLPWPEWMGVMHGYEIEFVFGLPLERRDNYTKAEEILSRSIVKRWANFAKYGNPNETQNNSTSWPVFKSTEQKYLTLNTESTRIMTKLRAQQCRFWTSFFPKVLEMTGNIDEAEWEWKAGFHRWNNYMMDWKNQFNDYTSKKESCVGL

`CCN(C)C(=O)Oc1cccc([C@H](C)N(C)C)c1` [RIVASTIGMINE] showed an IC50 of 105 nM.
